The numbers were not newly measured in publication PMC8741604 (Translational Oncology, 2022), which cites them from elsewhere.

pKd: −log10 of the molar value.

The series deals with PD-L1. As to conditions: read-out: KD of PD-1 for PD-L1; natural partner PD-1; cited from earlier work.

The pKd is the Kd on a negative log10 scale, so that one unit is a factor of ten. For “PD-1: natural binding partner of PD-L1, positive control”, the negative-log Kd (pKd) is approximately 5.10.
